Measured values published in patent publication US6664231B1, “Anti-fungal peptides” (priority 1993, dated 2003).

Key:
[1] = Serum stability, anti-fungal activity after serum incubation by radial diffusion bioassay; assay type: in vitro ADME, rat or human serum
Description: (§1) For these serum stability experiments, peptides were prepared by solid phase peptide sythesis and purified to 94% or greater purity as described in Example 1. Blood was collected from metaphane anesthesized rats by aortic bleed into Vacutainer™ tubes and allowed to clot at room temperature for approximately 30 minutes, then centrifuged at 3000 rpm (about 1000×g) for 10 minutes at room temperature and the serum aspirated. In addition, frozen human serum (North American Biologics, Inc., Miami, Fla., cat. no. 2140, lot no. 94115) was thawed at room temperature and filtered through a 0.45 μm membrane before use.
(§2) A 1 mg/mL solution of an exemplary XMP peptide to be tested was added to an equal volume of either rat or human serum described above and maintained at 37° C. At 0, 1, 2, and 4 hours, 100 μL were removed and processed by solid phase extraction for HPLC analysis as follows. Serum samples were prepared for HPLC using C-18 Sep-Pak cartridges (1 mL cartridge with 100 mg of sorbent, Waters Corp., Milford, Mass.). One hundred μL of serum sample were added to an equal volume of 1% TFA and mixed for 30 seconds on a Vortex mixer. The sample was then applied to a C-18 Sep-Pak cartridge that had been conditioned by washing with 1 mL of methanol followed by 1 mL Milli-Q water. Weakly reed components were eluted by washing with 1 mL of 0. 1% TFA. The bound peptide was eluted with two volumes of 250 μL 80% acetonitrile/0.065% TFA.
The peptides identified and purified after serum incubation as described above were subjected to N-terminal peptide sequencing performed on an Applied Biosystems Model 477A/120A sequencer and to electrospray ionization mass spectrometry (ESI/MS) performed using a VG Biotech Bio-Q Mass Spectrometer. In addition, the peptides identified and purified after serum incubation as described above were also tested for their anti-fungal activity in a radial diffusion bioassay with Candida albicans SLU-1 strain as described in Example 2.

in vitro = in vitro ADME, rat or human serum
Description: as §1, §2
The material eluted from the Sep-Pak cartridge was analyzed on a Michrom Ultaafast Microprotein Analyzer equipped with a 150 mm×1 mm, 5μ particle, 300 Å pore C-8 Zorbax column. The column oven was set to 40° C., the flow rate was 100 μL/minute, and injection volumes were typically 5-10 μL. HPLC was performed using 5% acetonitrile/0.1% TFA in water as mobile phase A, and 80% acetonitrile/0.065% TFA as mobile phase B. The eluate was monitored spectiophotometrically at 214 nm. Peptide standards were dissolved in mobile phase A at 0. 1 mg/mL. The gradient was 25-35% B/10 minutes followed by a 5 minute wash step of 100% B and reequilibration at 25% B for 10 minutes.

[2] = tested on: C. albicans (CA-1, Strain SLU-1); assay: Radial diffusion assay; assay type: cell-based, Candida albicans; details: for C. albicans pmol/30 mm^2 zone: pmoles of peptide added to well to achieve a 30 mm^2 zone, PROBIT analysis, crude or purified (P′) peptide; for activity in radial diffusion: restated from Table 1
Summary of the method: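 Peptides, serially diluted 2-fold in D-PBS (top ~1 mg/mL), diffused 3 h at 37° C into pH 7.4 phosphate-buffered agarose seeded with 1×10^6 CFU/mL yeast, before overnight growth under a 6% Sabouraud overlayer. Net inhibition zones measured after Coomassie staining; PROBIT fit of log pmol vs area gave pmol for 30 mm^2.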

[3] = tested on: C. albicans (SLU-1 and other strains); assay type: cell-based, Candida albicans
Description: (§3) In additional experiments, a fluorescence-activated cell sorter (FACS) based assay was developed to test the fungicidal activity of the peptides. […] Difco) agar. Several colonies were picked from the agar plate and inoculated into 5 mL of Sabouraud's Dextrose media in a sterile 10 mL polypropylene tube. The fungal cultures were incubated for about 18 hours at 30° C. […] The culture were centrifuged at 3000 rpm for 5 minutes (Sorvall RT 6000B). After centrifugation, the supernatant was decanted leaving the fungal pellets in the centrifuge tubes. The pellets were resuspended in 15 mL of SDB. Both suspensions were combined into one tube and mixed to generate a stock culture. […] After determining the concentration of the stock, appropriate dilutions were made with Sabouraud's Dextrose media to obtain 100 mL of 1×10^6 cell/mL. […] After the 1 hour incubation, all the tubes were centrifuged at 3000 rpm for 5 minutes. […] Louis, Mo.) in Dulbecco's PBS (DPBS, GIBCO, Grand Island, N.Y.) except the autofluorescence control, which was resuspended in DPBS alone. The tubes were mixed and incubated in the dark at room temperature for at least 20 minutes. […] The settings were adjusted appropriately to the following approximate parameters: Cells were analyzed (10,000 cells/tube) and their respective fluorescence determined. […] The population of dead (i.e., propidium iodide stained) fungal cells was determined by a fluorescence threshold between the negative control and positive control.

Candida glabrata = assay type: cell-based
Description: as §3

Candida lusitaniae = assay type: cell-based
Description: as §3

[4] = tested on: Crytococcus Neoformans 13690; assay type: cell-based, Cryptococcus neoformans
Description: as §3

[5] = serum, 37° C., serum; read-out: serum half-life of peptide by HPLC
[6] = serum, half-life of peptide in serum as detected by HPLC analysis; read-out: HPLC Peptide in Serum t ½ (converted)

Compound | half-life at 0.5 mg/mL ([1]; Activity in Serum t ½ (hr.)) | half-life at 0.5 mg/mL (in vitro; [6]) | C. albicans pmol/30 mm^2 zone [2] | Activity on various strains of C. albicans, IC50, 10231 [3] | Activity on various strains of C. albicans, IC50, 14053 [3] | Activity on various strains of C. albicans, IC50, 26555 [3] | Activity on various strains of C. albicans, IC50, 90028 [3] | Activity on various strains of C. albicans, IC50, SLU#1 [3] | Candida glabrata IC50 (Candida glabrata) | Candida lusitaniae IC50 (Candida lusitaniae) | Activity of Peptides on Crytococcus Neoformans 13690, IC50 [4] | further results
CC[C@H](C)[C@H](NC(=O)[C@H](CC(C)C)NC(=O)[C@H](Cc1c[nH]c2ccccc12)NC(=O)[C@H](CCCCN)NC(=O)[C@@H](NC(=O)[C@H](CCCCN)NC(=O)[C@H](CO)NC(=O)[C@@H](N)CCCCN)C(C)C)C(=O)N[C@@H](CCC(N)=O)C(=O)N[C@@H](CC(C)C)C(=O)N[C@@H](Cc1ccccc1)C(=O)N[C@@H](Cc1c[nH]cn1)C(=O)N[C@@H](CCCCN)C(=O)N[C@@H](CCCCN)C(N)=O [XMP.97] | 22.7 h | 1 h | 213 pmol/30 mm^2 zone | – | – | – | – | – | – | – | – | half-life at 0.5 mg/mL (in vitro; [5]): 0.983 h; C. albicans pmol/30 mm^2 zone ([2]; listed as XMP.97P′): 303.5 pmol/30 mm^2 zone
CC[C@H](C)[C@H](NC(=O)[C@H](CC(C)C)NC(=O)[C@H](Cc1ccccc1)NC(=O)CNC(=O)[C@@H](NC(=O)[C@H](CCCCN)NC(=O)[C@H](CO)NC(=O)[C@@H](N)CCCCN)C(C)C)C(=O)N[C@@H](CCC(N)=O)C(=O)N[C@@H](CC(C)C)C(=O)N[C@@H](Cc1ccccc1)C(=O)N[C@@H](Cc1c[nH]cn1)C(=O)N[C@@H](CCCCN)C(=O)N[C@@H](CCCCN)C(N)=O [XMP.127] | – | – | 226 pmol/30 mm^2 zone | – | – | – | – | – | – | – | – | C. albicans pmol/30 mm^2 zone ([2]; listed as XMP.127P′): 935 pmol/30 mm^2 zone
CC[C@H](C)[C@H](NC(=O)[C@H](CC(C)C)NC(=O)[C@H](Cc1c[nH]c2ccccc12)NC(=O)[C@H](CCCCN)NC(=O)[C@@H](N)CCCCN)C(=O)N[C@@H](CCC(N)=O)C(=O)N[C@@H](CC(C)C)C(=O)N[C@@H](CCCCN)C(=O)N[C@@H](CCCCN)C(N)=O [XMP.327] | 2.7 h | 1.1 h | 353 pmol/30 mm^2 zone | – | – | – | – | – | – | – | – | half-life at 0.5 mg/mL ([1]; serum half-life as determined by anti-fungal activity in the radial diffusion assay): 0.717 h; half-life at 0.5 mg/mL (in vitro; [5]): 0.667 h; C. albicans pmol/30 mm^2 zone ([2]; listed as XMP.327P′): 630 pmol/30 mm^2 zone; activity in radial diffusion [2]: 353 pmol
CC[C@H](C)[C@H](NC(=O)[C@H](CC(C)C)NC(=O)[C@H](Cc1c[nH]c2ccccc12)NC(=O)[C@H](CCCCN)NC(=O)[C@H](CCCCN)NC(C)=O)C(=O)N[C@@H](CCC(N)=O)C(=O)N[C@@H](CC(C)C)C(=O)N[C@@H](CCCCN)C(=O)N[C@@H](CCCCN)C(N)=O [XMP.331] | – | 4 h | b (No detectable activity up to 5 μg/well) | – | – | – | – | – | – | – | – | half-life at 0.5 mg/mL (in vitro; 37° C., serum; read-out: serum half-life of peptide by HPLC): 4.67 h; C. albicans pmol/30 mm^2 zone ([2]; listed as XMP.331P′): >3,493 pmol/30 mm^2 zone; activity in radial diffusion [2]: > 3,493 pmol
CC[C@H](C)[C@H](NC(=O)[C@H](CC(C)C)NC(=O)[C@H](Cc1c[nH]c2ccccc12)NC(=O)[C@@H](CCCCN)NC(=O)[C@H](N)CCCCN)C(=O)N[C@@H](CCC(N)=O)C(=O)N[C@@H](CC(C)C)C(=O)N[C@H](CCCCN)C(=O)N[C@H](CCCCN)C(N)=O [XMP.342] | – | 5.2 h | 1,591 pmol/30 mm^2 zone | 8.07 µg/mL | 2.74 µg/mL | 3.19 µg/mL | 3.44 µg/mL | 1.88 µg/mL | 11.00 µg/mL | 3.24 µg/mL | 0.95 µg/mL | C. albicans pmol/30 mm^2 zone ([2]; listed as XMP.342P′): 97 pmol/30 mm^2 zone
CC[C@@H](C)[C@@H](NC(=O)[C@@H](CC(C)C)NC(=O)[C@@H](Cc1c[nH]c2ccccc12)NC(=O)[C@H](N)CCCCN)C(=O)N[C@H](CCC(N)=O)C(=O)N[C@H](CC(C)C)C(=O)N[C@H](Cc1ccccc1)C(=O)N[C@H](Cc1c[nH]cn1)C(=O)N[C@H](CCCCN)C(=O)N[C@H](CCCCN)C(N)=O [XMP.365] | 15.1 h | 26.3 h | 1,294 pmol/30 mm^2 zone | 3.75 µg/mL | 0.13 µg/mL | 0.15 µg/mL | 0.27 µg/mL | 2.11 µg/mL | 15.26 µg/mL | 1.25 µg/mL | 0.03 µg/mL | C. albicans pmol/30 mm^2 zone ([2]; listed as XMP.365P′): 489 pmol/30 mm^2 zone
CC[C@@H](C)[C@@H](NC(=O)[C@@H](CC(C)C)NC(=O)[C@@H](Cc1c[nH]c2ccccc12)NC(=O)[C@@H](CCCCN)NC(C)=O)C(=O)N[C@H](CCC(N)=O)C(=O)N[C@H](CC(C)C)C(=O)N[C@H](Cc1ccccc1)C(=O)N[C@H](Cc1c[nH]cn1)C(=O)N[C@H](CCCCN)C(=O)N[C@H](CCCCN)C(N)=O [XMP.366] | 11.7 h | 14 h | 725 pmol/30 mm^2 zone | 4.53 µg/mL | 1.35 µg/mL | 0.69 µg/mL | 2.29 µg/mL | 0.89 µg/mL | 21.00 µg/mL | 3.03 µg/mL | 0.47 µg/mL | –
CC[C@@H](C)[C@@H](NC(=O)[C@@H](CCC(N)=O)NC(=O)[C@@H](CC(C)C)NC(=O)[C@@H](Cc1ccccc1)NC(=O)[C@@H](Cc1c[nH]cn1)NC(=O)[C@@H](CCCCN)NC(=O)[C@H](N)CCCCN)C(=O)N[C@H](CC(C)C)C(=O)N[C@H](Cc1c[nH]c2ccccc12)C(=O)N[C@H](CCCCN)C(N)=O [XMP.367] | – | 52.4 h | 4,641 pmol/30 mm^2 zone | – | 0.08 µg/mL | 0.21 µg/mL | 0.22 µg/mL | 2.37 µg/mL | 20.00 µg/mL | 1.25 µg/mL | 0.05 µg/mL | C. albicans pmol/30 mm^2 zone ([2]; listed as XMP.367′): 1,108 pmol/30 mm^2 zone
